Amino acid sequences for entries named in this document (tags omitted).
UniProt P97266, whole entry: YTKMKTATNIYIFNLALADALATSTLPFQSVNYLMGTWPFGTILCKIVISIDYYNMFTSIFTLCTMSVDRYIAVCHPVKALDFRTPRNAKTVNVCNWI

In ChEMBL document CHEMBL1131540, “Modifications of the 4,4'-residues and SAR studies of Biphalin, a highly potent opioid receptor active peptide” (Bioorg Med Chem Lett, 1998):

Molecular target: Mu-type opioid receptor (Cavia porcellus, UniProt P97266)
Assay: Compound was tested for binding affinity towards mu opioid receptor in guinea pig brain homogenates using [3H]CTOP as radioligand
Assay type: tissue-based

**Q.** For C[C@@H](NC(=O)[C@@H](N)Cc1ccc(O)cc1)C(=O)NCC(=O)N[C@@H](Cc1ccccc1)C(=O)NNC(=O)[C@H](Cc1ccccc1)NC(=O)CNC(=O)[C@@H](C)NC(=O)[C@@H](N)Cc1ccc(O)cc1, which Ki is on record?
**A.** 2.8 nM
